Measured values published in publication PMC11472320, “Computationally Driven Discovery of a BCR-ABL1 Kinase Inhibitor with Activity in Multidrug-Resistant Chronic Myeloid Leukemia” (Journal of Medicinal Chemistry, 2024).

Amino acid sequences for entries named in this document (tags omitted). A change or cut given only in a name is not applied to a line headed by its entry. Residues count along the entry.
UniProt P15056, whole entry V600E: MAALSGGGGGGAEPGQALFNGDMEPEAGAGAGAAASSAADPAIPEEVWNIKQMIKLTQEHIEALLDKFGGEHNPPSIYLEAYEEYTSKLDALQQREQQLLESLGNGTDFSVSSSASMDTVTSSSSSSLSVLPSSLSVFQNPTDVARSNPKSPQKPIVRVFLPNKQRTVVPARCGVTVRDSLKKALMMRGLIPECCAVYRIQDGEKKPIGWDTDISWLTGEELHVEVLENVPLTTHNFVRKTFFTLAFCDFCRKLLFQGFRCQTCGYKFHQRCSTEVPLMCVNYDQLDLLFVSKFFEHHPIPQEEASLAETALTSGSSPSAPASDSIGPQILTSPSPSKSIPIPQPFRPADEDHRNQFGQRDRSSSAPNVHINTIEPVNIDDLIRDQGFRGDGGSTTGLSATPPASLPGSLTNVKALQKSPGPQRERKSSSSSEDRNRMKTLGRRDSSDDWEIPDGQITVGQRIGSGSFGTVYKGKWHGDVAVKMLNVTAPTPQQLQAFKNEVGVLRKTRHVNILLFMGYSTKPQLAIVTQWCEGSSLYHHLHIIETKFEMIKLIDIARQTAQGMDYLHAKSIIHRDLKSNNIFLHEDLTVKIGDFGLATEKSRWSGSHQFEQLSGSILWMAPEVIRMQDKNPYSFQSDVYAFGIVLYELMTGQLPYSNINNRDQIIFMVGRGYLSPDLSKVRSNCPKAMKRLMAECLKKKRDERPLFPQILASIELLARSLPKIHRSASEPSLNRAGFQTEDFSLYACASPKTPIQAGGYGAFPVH
UniProt Q00532: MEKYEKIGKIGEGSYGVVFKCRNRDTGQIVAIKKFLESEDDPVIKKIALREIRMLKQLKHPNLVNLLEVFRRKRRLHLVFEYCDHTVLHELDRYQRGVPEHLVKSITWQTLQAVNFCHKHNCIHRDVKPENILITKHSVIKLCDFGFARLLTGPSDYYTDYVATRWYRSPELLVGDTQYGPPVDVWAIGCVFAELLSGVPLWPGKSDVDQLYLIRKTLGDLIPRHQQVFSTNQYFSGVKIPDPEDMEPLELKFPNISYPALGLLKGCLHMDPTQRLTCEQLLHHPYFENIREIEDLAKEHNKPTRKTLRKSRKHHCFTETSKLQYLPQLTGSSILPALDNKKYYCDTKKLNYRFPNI
UniProt Q16659, whole entry: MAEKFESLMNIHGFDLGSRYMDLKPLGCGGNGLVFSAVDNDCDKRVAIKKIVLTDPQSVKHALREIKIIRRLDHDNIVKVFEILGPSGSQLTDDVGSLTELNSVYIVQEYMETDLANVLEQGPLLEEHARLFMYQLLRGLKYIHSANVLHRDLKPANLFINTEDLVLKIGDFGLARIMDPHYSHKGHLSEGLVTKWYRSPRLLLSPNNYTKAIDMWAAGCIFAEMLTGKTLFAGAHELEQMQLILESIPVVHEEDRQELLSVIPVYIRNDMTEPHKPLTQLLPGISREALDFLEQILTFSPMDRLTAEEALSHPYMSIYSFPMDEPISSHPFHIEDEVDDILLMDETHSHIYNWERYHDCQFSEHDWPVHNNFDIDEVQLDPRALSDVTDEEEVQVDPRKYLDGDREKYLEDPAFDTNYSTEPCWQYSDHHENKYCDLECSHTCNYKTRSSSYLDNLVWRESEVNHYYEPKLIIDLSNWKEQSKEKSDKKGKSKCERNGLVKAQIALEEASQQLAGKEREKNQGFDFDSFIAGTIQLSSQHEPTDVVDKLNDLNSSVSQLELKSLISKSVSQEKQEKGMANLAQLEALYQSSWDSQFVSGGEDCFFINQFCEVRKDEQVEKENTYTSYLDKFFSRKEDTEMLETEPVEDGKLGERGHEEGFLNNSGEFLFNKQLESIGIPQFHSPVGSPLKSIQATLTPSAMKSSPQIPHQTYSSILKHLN
UniProt Q8TF76: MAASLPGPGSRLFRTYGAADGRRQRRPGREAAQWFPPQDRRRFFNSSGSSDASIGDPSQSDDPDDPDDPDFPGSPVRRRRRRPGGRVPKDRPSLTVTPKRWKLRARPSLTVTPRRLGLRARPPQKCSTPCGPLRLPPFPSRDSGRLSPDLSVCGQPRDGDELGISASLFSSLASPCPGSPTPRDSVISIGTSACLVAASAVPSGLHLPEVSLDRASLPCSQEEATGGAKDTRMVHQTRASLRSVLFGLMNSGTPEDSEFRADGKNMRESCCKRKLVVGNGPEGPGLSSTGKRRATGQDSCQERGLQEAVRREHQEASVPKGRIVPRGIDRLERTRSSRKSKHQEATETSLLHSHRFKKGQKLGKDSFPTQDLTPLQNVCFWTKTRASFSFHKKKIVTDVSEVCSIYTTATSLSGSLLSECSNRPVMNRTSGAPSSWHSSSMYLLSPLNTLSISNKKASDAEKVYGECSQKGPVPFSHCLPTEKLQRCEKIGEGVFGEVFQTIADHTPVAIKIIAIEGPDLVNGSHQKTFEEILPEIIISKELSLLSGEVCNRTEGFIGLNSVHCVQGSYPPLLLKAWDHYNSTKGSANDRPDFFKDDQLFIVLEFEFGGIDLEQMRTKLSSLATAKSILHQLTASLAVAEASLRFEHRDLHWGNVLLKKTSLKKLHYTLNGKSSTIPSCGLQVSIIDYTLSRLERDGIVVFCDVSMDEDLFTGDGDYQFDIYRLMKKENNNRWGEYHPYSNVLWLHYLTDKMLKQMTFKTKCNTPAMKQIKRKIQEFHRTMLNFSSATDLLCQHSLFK
UniProt Q8NE63: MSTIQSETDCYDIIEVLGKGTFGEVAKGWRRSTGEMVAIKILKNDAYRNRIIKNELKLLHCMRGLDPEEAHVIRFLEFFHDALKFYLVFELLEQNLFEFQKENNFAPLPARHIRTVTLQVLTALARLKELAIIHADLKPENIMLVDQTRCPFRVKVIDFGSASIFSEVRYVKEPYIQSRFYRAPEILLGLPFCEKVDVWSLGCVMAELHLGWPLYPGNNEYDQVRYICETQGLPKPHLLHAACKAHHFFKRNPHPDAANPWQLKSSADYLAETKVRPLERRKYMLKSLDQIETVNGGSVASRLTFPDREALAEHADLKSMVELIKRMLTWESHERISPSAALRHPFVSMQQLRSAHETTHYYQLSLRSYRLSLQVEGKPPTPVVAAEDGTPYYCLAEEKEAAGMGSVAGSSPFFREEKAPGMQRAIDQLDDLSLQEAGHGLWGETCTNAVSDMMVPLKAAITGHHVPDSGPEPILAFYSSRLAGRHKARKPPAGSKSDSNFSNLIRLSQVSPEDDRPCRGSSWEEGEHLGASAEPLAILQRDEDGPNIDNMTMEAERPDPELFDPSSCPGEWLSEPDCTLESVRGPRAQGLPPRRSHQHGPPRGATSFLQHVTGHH
UniProt Q9UPZ9: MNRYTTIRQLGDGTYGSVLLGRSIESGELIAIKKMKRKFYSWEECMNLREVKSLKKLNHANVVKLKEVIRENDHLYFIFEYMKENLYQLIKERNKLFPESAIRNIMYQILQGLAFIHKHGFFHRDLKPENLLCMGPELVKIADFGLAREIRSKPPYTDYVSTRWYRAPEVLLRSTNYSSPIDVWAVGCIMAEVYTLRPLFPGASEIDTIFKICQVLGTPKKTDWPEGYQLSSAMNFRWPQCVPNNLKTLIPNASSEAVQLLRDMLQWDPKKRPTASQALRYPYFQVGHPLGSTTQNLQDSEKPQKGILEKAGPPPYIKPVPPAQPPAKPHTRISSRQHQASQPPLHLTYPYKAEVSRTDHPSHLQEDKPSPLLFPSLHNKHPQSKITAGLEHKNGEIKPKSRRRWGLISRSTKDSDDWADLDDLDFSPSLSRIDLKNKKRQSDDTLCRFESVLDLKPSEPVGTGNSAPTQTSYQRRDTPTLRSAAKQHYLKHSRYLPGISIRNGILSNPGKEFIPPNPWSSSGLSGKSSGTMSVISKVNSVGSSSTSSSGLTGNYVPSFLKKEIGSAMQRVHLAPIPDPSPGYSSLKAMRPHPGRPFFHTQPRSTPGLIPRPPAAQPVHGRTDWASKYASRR
UniProt P07948: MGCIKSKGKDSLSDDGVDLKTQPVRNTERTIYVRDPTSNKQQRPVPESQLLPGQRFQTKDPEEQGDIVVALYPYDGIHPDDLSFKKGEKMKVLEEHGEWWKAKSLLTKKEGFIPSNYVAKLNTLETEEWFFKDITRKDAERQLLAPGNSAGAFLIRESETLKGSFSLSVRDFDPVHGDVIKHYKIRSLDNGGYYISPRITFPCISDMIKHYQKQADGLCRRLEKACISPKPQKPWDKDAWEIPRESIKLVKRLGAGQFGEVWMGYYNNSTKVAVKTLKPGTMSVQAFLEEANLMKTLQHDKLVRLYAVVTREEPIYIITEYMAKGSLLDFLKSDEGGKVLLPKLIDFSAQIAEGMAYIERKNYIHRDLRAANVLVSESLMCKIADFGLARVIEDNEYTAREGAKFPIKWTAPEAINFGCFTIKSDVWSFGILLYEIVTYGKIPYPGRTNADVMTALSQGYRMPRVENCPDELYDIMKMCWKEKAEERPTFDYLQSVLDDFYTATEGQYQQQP
UniProt P52564: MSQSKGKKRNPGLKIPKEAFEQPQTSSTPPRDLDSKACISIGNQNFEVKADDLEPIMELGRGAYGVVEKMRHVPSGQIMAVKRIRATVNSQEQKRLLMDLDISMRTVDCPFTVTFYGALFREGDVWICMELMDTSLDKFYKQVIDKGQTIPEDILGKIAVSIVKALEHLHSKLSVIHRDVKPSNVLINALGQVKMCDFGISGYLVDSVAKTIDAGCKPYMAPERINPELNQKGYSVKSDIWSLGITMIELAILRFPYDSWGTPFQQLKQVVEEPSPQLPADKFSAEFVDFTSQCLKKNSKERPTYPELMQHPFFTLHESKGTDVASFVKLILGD
UniProt Q9Y6E0: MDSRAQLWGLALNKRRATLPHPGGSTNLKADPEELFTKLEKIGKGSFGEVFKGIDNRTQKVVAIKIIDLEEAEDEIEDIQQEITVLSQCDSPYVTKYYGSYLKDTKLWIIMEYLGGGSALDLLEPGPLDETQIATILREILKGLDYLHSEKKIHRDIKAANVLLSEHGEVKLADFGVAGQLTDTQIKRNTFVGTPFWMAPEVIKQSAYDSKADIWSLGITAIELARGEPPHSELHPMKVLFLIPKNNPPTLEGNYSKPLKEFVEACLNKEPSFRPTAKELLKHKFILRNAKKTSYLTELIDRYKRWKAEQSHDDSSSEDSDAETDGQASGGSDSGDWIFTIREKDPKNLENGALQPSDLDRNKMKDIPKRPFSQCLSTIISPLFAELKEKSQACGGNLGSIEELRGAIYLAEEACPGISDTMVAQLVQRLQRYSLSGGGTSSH
UniProt P42336, whole entry H1047L: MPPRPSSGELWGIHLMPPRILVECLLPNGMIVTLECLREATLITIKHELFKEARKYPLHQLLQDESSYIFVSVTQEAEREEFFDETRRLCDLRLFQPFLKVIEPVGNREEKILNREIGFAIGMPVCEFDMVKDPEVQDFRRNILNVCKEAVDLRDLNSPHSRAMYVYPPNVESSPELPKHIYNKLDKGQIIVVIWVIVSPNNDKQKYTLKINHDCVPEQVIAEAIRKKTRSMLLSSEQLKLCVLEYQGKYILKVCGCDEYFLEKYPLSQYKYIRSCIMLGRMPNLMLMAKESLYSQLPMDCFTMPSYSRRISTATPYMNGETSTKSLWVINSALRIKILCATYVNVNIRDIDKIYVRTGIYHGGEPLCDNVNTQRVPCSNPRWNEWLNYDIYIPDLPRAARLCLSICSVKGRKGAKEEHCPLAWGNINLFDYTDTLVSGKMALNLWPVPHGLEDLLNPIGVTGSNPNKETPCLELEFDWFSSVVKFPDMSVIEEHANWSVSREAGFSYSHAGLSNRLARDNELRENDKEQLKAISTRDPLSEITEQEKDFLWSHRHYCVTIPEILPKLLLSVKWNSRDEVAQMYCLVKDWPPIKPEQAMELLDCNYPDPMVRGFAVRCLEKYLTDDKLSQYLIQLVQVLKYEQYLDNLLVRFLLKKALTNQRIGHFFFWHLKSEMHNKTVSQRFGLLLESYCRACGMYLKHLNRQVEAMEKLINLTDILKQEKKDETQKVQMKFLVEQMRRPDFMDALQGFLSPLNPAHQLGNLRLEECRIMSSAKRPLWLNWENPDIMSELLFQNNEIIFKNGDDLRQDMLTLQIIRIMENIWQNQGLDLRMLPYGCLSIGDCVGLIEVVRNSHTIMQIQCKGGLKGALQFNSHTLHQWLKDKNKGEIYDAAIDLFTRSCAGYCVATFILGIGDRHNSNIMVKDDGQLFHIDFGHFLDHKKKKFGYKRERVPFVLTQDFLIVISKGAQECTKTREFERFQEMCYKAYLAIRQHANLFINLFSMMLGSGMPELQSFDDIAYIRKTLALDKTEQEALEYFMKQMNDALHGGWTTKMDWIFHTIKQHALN
UniProt O75582, 426-687 limits assumed: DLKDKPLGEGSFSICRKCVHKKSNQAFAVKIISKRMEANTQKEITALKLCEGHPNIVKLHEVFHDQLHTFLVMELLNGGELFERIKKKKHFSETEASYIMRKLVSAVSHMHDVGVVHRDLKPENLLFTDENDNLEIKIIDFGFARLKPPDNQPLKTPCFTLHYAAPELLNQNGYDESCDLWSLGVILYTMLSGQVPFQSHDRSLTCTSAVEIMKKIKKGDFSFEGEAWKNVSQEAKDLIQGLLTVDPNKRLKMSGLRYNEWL

Tests used:
Assay in all cases: biochemical
Conditions in all cases: read-out: Percent Control
ACVRL1 = ACVRL1 (Homo sapiens, UniProt P37023)
BRAF(V600E) = BRAF(V600E) (Homo sapiens, UniProt P15056, V600E)
CAMK1 = CAMK1 (Homo sapiens, UniProt Q14012)
CAMK1D = CAMK1D (Homo sapiens, UniProt Q8IU85)
CDK4 = CDK4 (Homo sapiens, UniProt P11802)
CDK7 = CDK7 (Homo sapiens, UniProt P50613)
CDKL1 = CDKL1 (Homo sapiens, UniProt Q00532)
DCAMKL3 = DCAMKL3 (Homo sapiens, UniProt Q9C098)
EGFR = EGFR (Homo sapiens, UniProt P00533)
EGFR(G719S) = EGFR(G719S) (Homo sapiens, UniProt P00533, G719S)
EGFR(L861Q) = EGFR(L861Q) (Homo sapiens, UniProt P00533, L861Q)
ERK3 = ERK3 (Homo sapiens, UniProt Q16659)
ERN 1.00 = ERN 1.00 (Homo sapiens, UniProt O75460)
GRK3 = GRK3 (Homo sapiens, UniProt P35626)
HASPIN = HASPIN (Homo sapiens, UniProt Q8TF76)
HIPK4 = HIPK4 (Homo sapiens, UniProt Q8NE63)
ICK = ICK (Homo sapiens, UniProt Q9UPZ9)
[1] = target: JAK2(JH1domain-catalytic) (Homo sapiens, UniProt O60674)
LRRK2 = LRRK2 (Homo sapiens, UniProt Q5S007)
LYN = LYN (Homo sapiens, UniProt P07948)
MAP4K3 = MAP4K3 (Homo sapiens, UniProt Q8IVH8)
MEK2 = MEK2 (Homo sapiens, UniProt P36507)
MEK6 = MEK6 (Homo sapiens, UniProt P52564)
MET(Y1235D) = MET(Y1235D) (Homo sapiens, UniProt P08581, Y1235D)
MINK = MINK (Homo sapiens, UniProt Q8N4C8)
MST3 = MST3 (Homo sapiens, UniProt Q9Y6E0)
NEK10 = NEK10 (Homo sapiens, UniProt Q6ZWH5)
PAK3 = PAK3 (Homo sapiens, UniProt O75914)
PHKG2 = PHKG2 (Homo sapiens, UniProt P15735)
PIK3C2B = PIK3C2B (Homo sapiens, UniProt O00750)
PIK3CA(H1047L) = PIK3CA(H1047L) (Homo sapiens, UniProt P42336, H1047L)
PIM2 = PIM2 (Homo sapiens, UniProt Q9P1W9)
PIM3 = PIM3 (Homo sapiens, UniProt Q86V86)
PIP5K1A = PIP5K1A (Homo sapiens, UniProt Q99755)
RIOK3 = RIOK3 (Homo sapiens, UniProt O14730)
[2] = target: RPS6KA5(Kin.Dom.2-C-terminal) (Homo sapiens, UniProt O75582)
SIK2 = SIK2 (Homo sapiens, UniProt Q9H0K1)
SLK = SLK (Homo sapiens, UniProt Q9H2G2)
TAOK2 = TAOK2 (Homo sapiens, UniProt Q9UL54)
TSSK3 = TSSK3 (Homo sapiens, UniProt Q96PN8)
[3] = target: TYK2(JH1domain-catalytic) (Homo sapiens, UniProt P29597)
VEGFR2 = VEGFR2 (Homo sapiens, UniProt P35968)
VPS34 = VPS34 (Homo sapiens, UniProt Q8NEB9)

## COc1cc2c(Nc3ccc(Cl)c(OC)n3)c(C#N)cnc2cc1OCCON1CCN(C)CC1 [16a, 4-((5-Chloro-6-methoxypyridin-2-yl)amino)-6-methoxy-7-(2-((4-methylpiperazin-1-yl)oxy)ethoxy)quinoline-3-carbonitrile]
ACVRL1
  remaining activity at 1 µM: 100%
BRAF(V600E)
  remaining activity at 1 µM: 100%
CAMK1
  remaining activity at 1 µM: 65%
CAMK1D
  remaining activity at 1 µM: 2%
CDK4
  remaining activity at 1 µM: 100%
CDK7
  remaining activity at 1 µM: 26%
CDKL1
  remaining activity at 1 µM: 70%
DCAMKL3
  remaining activity at 1 µM: 9.1%
EGFR
  remaining activity at 1 µM: 0.6%
EGFR(G719S)
  remaining activity at 1 µM: 0.3%
EGFR(L861Q)
  remaining activity at 1 µM: 1%
ERK3
  remaining activity at 1 µM: 49%
ERN 1.00
  remaining activity at 1 µM: 100%
GRK3
  remaining activity at 1 µM: 76%
HASPIN
  remaining activity at 1 µM: 89%
HIPK4
  remaining activity at 1 µM: 2.5%
ICK
  remaining activity at 1 µM: 100%
[1]
  remaining activity at 1 µM: 4.3%
LRRK2
  remaining activity at 1 µM: 90%
LYN
  remaining activity at 1 µM: 1.4%
MAP4K3
  remaining activity at 1 µM: 0.75%
MEK2
  remaining activity at 1 µM: 0%
MEK6
  remaining activity at 1 µM: 46%
MET(Y1235D)
  remaining activity at 1 µM: 80%
MINK
  remaining activity at 1 µM: 3.8%
MST3
  remaining activity at 1 µM: 25%
NEK10
  remaining activity at 1 µM: 100%
PAK3
  remaining activity at 1 µM: 24%
PHKG2
  remaining activity at 1 µM: 76%
PIK3C2B
  remaining activity at 1 µM: 100%
PIK3CA(H1047L)
  remaining activity at 1 µM: 100%
PIM2
  remaining activity at 1 µM: 100%
PIM3
  remaining activity at 1 µM: 84%
PIP5K1A
  remaining activity at 1 µM: 15%
RIOK3
  remaining activity at 1 µM: 0.8%
[2]
  remaining activity at 1 µM: 84%
SIK2
  remaining activity at 1 µM: 3%
SLK
  remaining activity at 1 µM: 0.2%
TAOK2
  remaining activity at 1 µM: 56%
TSSK3
  remaining activity at 1 µM: 76%
[3]
  remaining activity at 1 µM: 59%
VEGFR2
  remaining activity at 1 µM: 84%
VPS34
  remaining activity at 1 µM: 100%
